Results: patent US12492380B2, “Methods for the production of hepatocytes” (FUJIFILM Cellular Dynamics, Inc., priority 2019, dated 2025)

Tested on: iPSCs
Test: CHIR99021 preconditioning/supplementation during iPSC to hepatocyte differentiation
Format: cell-based, human
[1] = 3 μM during Stage 2, lines 54A, 89F, 01D1 (FIG. 11)

SMILES: Cc1c[nH]c(-c2cnc(NCCNc3ccc(C#N)cn3)nc2-c2ccc(Cl)cc2Cl)n1 [CHIR99021]
- AAT purity [1]: without impacting AAT purity
- cell proliferation and AAT-positive cell yields [1]: increases cell proliferation and AAT-positive cell yields
- effect on hepatocyte proliferation and differentiation efficiency (addition prior to DE induction): promote hepatocyte proliferation and differentiation efficiency
- effect of introduction during Stage 1 (introduction during Stage 1): no positive effect
- effect on cell morphology (introduction during Stage 2): no negative impact on cell morphology
- effect on cell proliferation (introduction during Stage 2): beneficial effect on cell proliferation
- effect on pluripotency markers (TRA181, POU5F1, NANOG) (pre-conditioning, during DE induction): downregulates pluripotency markers
